# Measurements reported in patent US20110070376A1 (priority 2002, published 2011).
# Tested on: E. coli ATCC#8739
# Experiment: Minimal inhibitory concentration in a 96-well plate assay, Example 34
# Details: 37° C., 24 hours, highest tested 5000 μg/ml
row,Substance,MIC [µg/mL]
1,Cobalt(II) chloride hexahydrate,625
2,Copper(II) carbonate,5000
3,Copper(II) sulfate,625
